Experimental findings from ChEMBL document CHEMBL3352447, “Structural development studies of PPARs ligands based on tyrosine scaffold” (Eur J Med Chem, 2015) are described below.

Chains of the proteins cited; added tags and fusions are not shown. Lines headed by an entry give the natural chain unless they say otherwise; changes in a name come on top.
UniProt P37231: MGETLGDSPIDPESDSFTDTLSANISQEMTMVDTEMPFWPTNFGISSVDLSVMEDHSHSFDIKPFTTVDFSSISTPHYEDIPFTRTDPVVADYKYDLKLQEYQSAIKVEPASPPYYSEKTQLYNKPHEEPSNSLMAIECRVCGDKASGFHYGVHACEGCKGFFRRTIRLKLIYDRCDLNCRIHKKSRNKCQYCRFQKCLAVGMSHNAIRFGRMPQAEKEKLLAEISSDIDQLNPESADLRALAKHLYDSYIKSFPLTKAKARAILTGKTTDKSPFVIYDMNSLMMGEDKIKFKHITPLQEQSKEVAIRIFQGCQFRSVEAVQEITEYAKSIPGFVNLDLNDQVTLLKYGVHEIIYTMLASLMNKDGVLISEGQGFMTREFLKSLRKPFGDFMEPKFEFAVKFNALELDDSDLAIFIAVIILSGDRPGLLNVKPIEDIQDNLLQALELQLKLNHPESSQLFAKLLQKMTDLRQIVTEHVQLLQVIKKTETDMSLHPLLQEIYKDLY

Experiment [1] has as its target T1, Peroxisome proliferator-activated receptor alpha (Homo sapiens) (UniProt Q07869).
T1 sequence (whole entry): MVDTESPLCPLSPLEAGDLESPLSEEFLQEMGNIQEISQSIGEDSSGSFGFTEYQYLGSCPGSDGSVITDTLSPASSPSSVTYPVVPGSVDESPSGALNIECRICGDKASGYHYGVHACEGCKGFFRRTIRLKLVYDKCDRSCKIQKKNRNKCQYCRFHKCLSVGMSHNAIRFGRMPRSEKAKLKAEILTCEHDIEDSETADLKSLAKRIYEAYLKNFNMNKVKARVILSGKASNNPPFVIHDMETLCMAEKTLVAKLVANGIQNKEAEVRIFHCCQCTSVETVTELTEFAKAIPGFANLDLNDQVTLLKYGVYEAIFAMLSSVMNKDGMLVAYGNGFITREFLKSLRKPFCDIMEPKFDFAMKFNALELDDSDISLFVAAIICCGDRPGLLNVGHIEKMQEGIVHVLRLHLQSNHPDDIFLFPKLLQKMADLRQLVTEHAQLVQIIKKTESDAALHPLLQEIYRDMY
Kind of experiment: Agonist activity at human GAL4-PPARalpha ligand binding domain expressed in human HepG2 cells assessed as maximum fold induction by luciferase reporter gene assay relative to Wy-14643. The format is cell-based. A digest of the protocol: (§1)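 HepG2 cells grown in MEM with 10% heat-inactivated FBS, penicillin/streptomycin, 37 °C, 5% CO2. 10^5 cells/well seeded, transfected after 24 h by calcium phosphate with Gal4-PPAR LBD expression plasmid (30 ng), pGal5TKpGL3 luciferase reporter (100 ng) and pCMVbgal (250 ng). Ligand added 4 h post-transfection for 20 h, in triplicate. Luciferase read in cell extracts, with β-galactosidase measured using ONPG.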

In experiment [2] the target is Peroxisome proliferator-activated receptor gamma (Homo sapiens, UniProt P37231). Kind of experiment: Agonist activity at human GAL4-PPARgamma ligand binding domain expressed in human HepG2 cells assessed as maximum fold induction by luciferase reporter gene assay relative to rosiglitazone. In kind it is cell-based. A digest of the protocol: as §1
A general note: A reporter such as luciferase makes a cellular process visible.

The source made the active and inactive calls. The calls are words filed in the database; no cut-off is given here.

Regarding `CCCc1c(OCCCOc2ccc(OCC(=O)O)cc2)ccc(C(C)=O)c1O`, the Emax entry in experiment [1] and in experiment [2] was “inactive” throughout.

Turning to `C/C(=C\C(=O)c1ccccc1)NC(Cc1ccc(OCCCOc2ccc(/N=N/c3ccc(Cl)cc3)cc2)cc1)C(=O)O` (centres undefined), the Emax result in experiment [1] was “inactive”.

Take `C/C(=C\C(=O)c1ccccc1)NC(Cc1ccc(OCCCOc2ccc(/N=N/c3ccc([N+](=O)[O-])cc3)cc2)cc1)C(=O)O` (centres undefined): the Emax result in experiment [1] was “inactive”.

Turning to `C/C(=C\C(=O)c1ccccc1)NC(Cc1ccc(OCCOc2ccc(/N=N/c3ccc(Cl)cc3)cc2)cc1)C(=O)O` (centres undefined), the Emax result in experiment [1] was “inactive”.

`COc1ccc(/N=N/c2ccc(OCCCOc3ccc(CC(N/C(C)=C/C(=O)c4ccccc4)C(=O)O)cc3)cc2)cc1` (centres undefined): the Emax entry in experiment [1] is “inactive”.

As to `C/C(=C\C(=O)c1ccccc1)NC(Cc1ccc(OCCCOc2ccc(/C=C/c3ccc(Cl)cc3)cc2)cc1)C(=O)O` (centres undefined), the Emax result in experiment [1] is “inactive”.

As to `C/C(=C\C(=O)c1ccccc1)NC(Cc1ccc(OCCCOc2ccc(/C=C/c3ccc(C(F)(F)F)cc3)cc2)cc1)C(=O)O` (centres undefined), in experiment [1], the Emax result is “inactive”.

Turning to `O=C(/C=C/c1ccccc1)NC(Cc1ccc(OCCOc2ccc(/C=C/c3ccccc3)cc2)cc1)C(=O)O` (centres undefined), the Emax entry in experiment [1] was “inactive”.

Regarding `C/C(=C\C(=O)c1ccccc1)NC(Cc1ccc(OCCOc2ccc(/N=N/c3ccccc3)cc2)cc1)C(=O)O` (centres undefined), in experiment [1], the Emax entry was “inactive”.

With `C/C(=C\C(=O)c1ccccc1)NC(Cc1ccc(OCCOc2ccc(/C=C/c3ccc(Cl)cc3)cc2)cc1)C(=O)O` (centres undefined), the Emax entry in experiment [1] was “inactive”.

As to `C/C(=C\C(=O)c1ccccc1)NC(Cc1ccc(OCCOc2ccc(/C=C/c3ccc(C)cc3)cc2)cc1)C(=O)O` (centres undefined), the Emax entry in experiment [1] was “inactive”.

On to `C/C(=C\C(=O)c1ccccc1)NC(Cc1ccc(OCCOc2ccc(/C=C/c3ccc(C(F)(F)F)cc3)cc2)cc1)C(=O)O` (centres undefined), for which the Emax result in experiment [1] is “inactive”.

In the case of `CC(=O)/C=C(\C)NC(Cc1ccc(OCCOc2ccc(/C=C/c3ccccc3)cc2)cc1)C(=O)O` (centres undefined), the Emax entry in experiment [1] is “inactive”.
